From paper PMC12724200 (mSphere, 2025)

Tested on: M. avium 104
Type: cell-based, Mycobacterium avium

Dimethyldithiocarbamate [DMDC] gave an MIC of 3.91 µg/mL.
